Measurements as given in patent US9732093B2, “FLAP modulators” (JANSSEN PHARMACEUTICA NV, priority 2013, dated 2017).

Chains of the proteins cited; added tags and fusions are not shown. Lines headed by an entry give the natural chain unless they say otherwise; changes in a name come on top.
UniProt P20292: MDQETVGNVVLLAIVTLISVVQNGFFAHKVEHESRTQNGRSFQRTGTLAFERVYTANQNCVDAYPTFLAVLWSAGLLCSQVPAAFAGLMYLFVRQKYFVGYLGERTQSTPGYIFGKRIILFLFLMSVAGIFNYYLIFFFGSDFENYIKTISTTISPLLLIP

Molecular target: human FLAP (Homo sapiens (Human), UniProt P20292)
Test: FLAP binding assay (HTRF format)
Description: The ability of the compounds of the present invention to treat a FLAP-mediated disease and/or disorder, or associated symptoms or complications thereof, was determined using the following procedures. Binding assay data represent the average value obtained from two different assay plates, with samples run in duplicate on each plate. Human whole blood assay data represent a single replicate on an assay plate using whole blood from at least one healthy donor.
Data are expressed as a HTRF ratio.

[1] = human FLAP wild type membranes, HTRF format, Table 6 (additional runs)
[2] = human FLAP-containing membranes, HTRF ligand 25 nM, 2 h, average of two plates, duplicates, read-out: FLAP Binding wild type HTRF Ki

Ki [1] [nM] | Compound | Ki [2] [nM]
81.9 | Nc1cnc(-c2ccc(C3CCC3)c(OCC(O)CNc3ncccn3)c2F)cn1 (racemic) [Example 56, racemic 1-(3-(5-Aminopyrazin-2-yl)-6-cyclobutyl-2-fluorophenoxy)-3-(pyrimidin-2-ylamino)propan-2-ol] | 82
4.9 | NC(=O)c1ccc(Oc2c(C3CCC3)ccc(-c3cnc(N)cn3)c2F)cc1 [Example 155, 4-[3-(5-Aminopyrazin-2-yl)-6-cyclobutyl-2-fluorophenoxy]benzamide] | 

Compound | Ki [1] [nM] | Ki [2] [nM]
5-(4-Cyclobutyl-2-fluoro-3-methoxyphenyl)pyridin-2-amine hydrochloride salt [Example 179] | ~354 | 750

Where two headings read alike, the source gives them in different places.
